Only a part is listed here, and it is no random draw. Activity calls are given as the source filed them.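 Rule for the calls: active = lipid droplet intensity inhibited by at least 50%, with more than 500 cells counted; inconclusive = wells with under 300 cells, treated as cytotoxic; inactive = the rest.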

A short description of this experiment: oleate-induced lipid droplet accumulation in AML12 cells – imaging, high-throughput imaging, BODIPY stain, primary screen (AID 1656). To be noted: AML12 mouse hepatocytes, oleate lipid droplets, at 6.5 µM, active compounds read high.
The inhibition is the change of the read-out against control, counted positive when it falls. Regarding `CC(C)c1ccc(OP(=O)(Nc2ccccn2)Oc2ccccc2F)cc1` (stereo not drawn), the inhibition is inactive: -9.6%. Take `COc1ccccc1OP(C)(=O)Nc1cc(Cl)ccc1C` (stereo not drawn): the inhibition was inactive: -5.3%.

In the case of `CC(C)NC(=O)NP(=O)(Oc1ccccc1)Oc1ccccc1`, the inhibition is inactive: 8.5%. For the molecule `COc1ccc(OP(C)(=O)Nc2cccc(F)c2)cc1` (stereo not drawn), the inhibition was inactive: -8.3%. As to `O=[N+]([O-])c1cc([N+](=O)[O-])c(-c2ccn[nH]2)s1`, the inhibition is inactive: -31.5%. The figure for `Cc1cc(C)cc(OP(C)(N)=O)c1` (stereo not drawn) is inactive: -1%. For the molecule `O=[As](O)(c1ccc(O)cc1)c1ccccc1O`, the inhibition is inactive: -10.2%. For `C[As](=O)(O)c1cccc(C(=O)O)c1`, the inhibition was inactive: -0.4%. As for `Cc1ccc(OP(=O)(Nc2ccc([N+](=O)[O-])cn2)Oc2ccc(C)cc2)cc1`, the inhibition was inactive: 6%. Take `CC(C)(C)c1ccc(OP(C)(=O)Nc2ccc(SC(F)(F)F)cc2)cc1` (stereo not drawn): the inhibition was inactive: -20.8%. The value for `Cc1cccc(C)c1OP(C)(N)=O` (stereo not drawn) was inactive: 23.4%; that for `O=[N+]([O-])c1ccc2c(c1)C=Nc1ccccc1O2` was inactive: 8.1%; that for `Cc1ccc2nc3c(c(C)c2c1)CC(C(Cl)Cl)S3` (stereo not drawn) was inactive: -19.1%. Take `NC(=O)Nc1ccc([As](=O)(O)O)cc1`: the inhibition was inactive: -6.3%.

In the case of `CN(C(=O)Cc1ccccc1)[C@@H]1CC[C@]2(CCCO2)C[C@H]1N1CCCC1`, the inhibition is inactive: -24.8%. In the case of `O=[N+]([O-])c1ccc2c(c1)nnn2O`, the inhibition was inactive: -2.4%.

As for `CC1=NCCc2c1[nH]c1ccccc21.O=[N+]([O-])c1cc([N+](=O)[O-])c(O)c([N+](=O)[O-])c1`, the inhibition is inactive: -14.7%. The value for `CCOP1(=S)c2c(C)nn(CCC#N)c2N=C(c2ccccc2F)N1C` (stereo not drawn) was inactive: 3.5%.

As to `O=C(O)c1cccc(Nc2c([N+](=O)[O-])cc([N+](=O)[O-])cc2[N+](=O)[O-])c1`, the inhibition is inactive: 12.4%. Regarding `O=P(Nc1nccs1)(Oc1ccccc1)Oc1ccccc1`, the inhibition was inactive: 20.5%.

As for `O=P(Nc1nccs1)(c1ccccc1)c1nc2ccccc2s1` (stereo not drawn), the inhibition was inactive: -4.1%. As for `CS(=O)(=O)c1cc([N+](=O)[O-])c2no[n+]([O-])c2c1`, the inhibition is inactive: 1.6%. On to `Nc1ccccc1[As](=O)(O)c1ccccc1`, for which the inhibition is inactive: 1.4%. As for `O=C(O)COc1ccc([As](=O)(O)O)cc1[N+](=O)[O-]`, the inhibition was inactive: -0.2%. Regarding `Cc1cc(C)cc(OP(C)(=O)Nc2ccccn2)c1` (stereo not drawn), the inhibition is inactive: 1.8%.

As to `CP(=O)(Nc1cccc(Br)c1)Oc1ccccc1` (stereo not drawn), the inhibition was inactive: 0.4%. Take `Cc1ccc(NCCc2c([N+](=O)[O-])cc([N+](=O)[O-])cc2[N+](=O)[O-])cc1`: the inhibition was inactive: 0.2%.

Consider `Nc1cccc2c([As](=O)(O)O)cccc12`, for which the inhibition is inactive: 16.8%.

These data come from PubChem BioAssay AID1656 (Sanford-Burnham Center for Chemical Genomics, 2009).
